Reference: PMC4079689, “HIV Treatments Reduce Malaria Liver Stage Burden in a Non-Human Primate Model of Malaria Infection at Clinically Relevant Concentrations In Vivo” (PLoS ONE, 2014)
Like-named read-outs stand apart in the source and are kept apart here.

How the values were obtained:
[1] = Pharmacokinetic study, single dose by gavage, plasma HPLC-MS/MS; details: dosing regimen LPV-RTV+TMP-SMX
[2] = design: method as in Ibarra et al. Eur J Pharm Sci. 2012;46(5):516–21; details: human historical data, LPV-RTV; ref Ibarra et al. Eur J Pharm Sci. 2012;46(5):516–21; cited from earlier work

- Cmax ([1]; rhesus JRH, awake, single dose by gavage): 3.4 µg/mL
SMILES: CC(C)c1nc(CN(C)C(=O)N[C@H](C(=O)N[C@@H](Cc2ccccc2)C[C@H](O)[C@H](Cc2ccccc2)NC(=O)OCc2cncs2)C(C)C)cs1 [Ritonavir]
- Cmax ([1]; rhesus JMF, sedated, single dose by gavage (LPV-RTV 50 mg/kg; TMP 4 mg/kg + SMX 20 mg/kg)): 0.8 µg/mL
- Cmax [2]: 0.610 µg/mL
